In patent US20150018268A1, “MULTIVALENT SYNTHETIC COMPOUNDS AS ANTIBIOTIC TREATMENT” (CENTRE NATIONAL DE LA RECHERCHE SCIENTIFIQUE (CNRS), priority 2010, published 2015) one finds IC50 data, which are given here for one compound.

Details in all cases: 24 h
The test system of one assay is Acinetobacter Baumanii. Format: cell-based. The method, then: (§1) FIG. 3. Effect of Nucant 6L (N6L) on the proliferation of several Gram-negative (Gram-) bacteria species. All bacteria were cultivated to mid-logarithmic phase (optical density at 600 nm ranging from 0.2 to 0.5) in culture medium. Bacteria were then washed and diluted 1/100 in culture medium (LB) and incubated at 37° C. in 96-wells culture plate in the presence or absence of various concentrations of […] ranging from 10 to 1000 μM. […] C. freundii: Citrobacter freundii; Y. enterocolitica: Yersinia enterocolitica; P. aeruginosa: Pseudomonas aeruginosa; A. baumanii: Acinetobacter baumanii; E. coli: Escherichia coli. All bacteria were cultivated to mid-logarithmic phase (optical density at 600 nm ranging from 0.2 to 0.5) in culture medium. Bacteria were then washed and diluted 1/100 in culture medium (LB) and incubated at 37° C. in 96-wells culture plate in the presence or absence of various concentrations of […] ranging from 10 to 1000 μM.

The subject of another assay is Citrobacter Freundii. Format: cell-based. The method, then: as §1
For a further assay, the system named is Escherichia Coli. In kind it is cell-based. The procedure: as §1
In a further assay the test system is Pseudomonas Aeruginosa. Format: cell-based. The method, then:
as §1

Another assay concerns Yersinia Enterocolitica. Format: cell-based. The method, then: as §1
The subject of assay [1] is Staphilococcus Aureus (meticillin resistant). Format: cell-based, Staphylococcus aureus. The procedure:
(§2) FIG. 2. Effect of Nucant 6L (N6L) on the proliferation of several Gram-positive (Gram+) bacteria species. All bacteria were cultivated to mid-logarithmic phase (optical density at 600 nm ranging from 0.2 to 0.5) in culture medium. Bacteria were then washed and diluted 1/100 in culture medium (LB) and incubated at 37° C. in 96-wells culture plate in the presence or absence of various concentrations of N6L ranging from 10 to 1000 μM. After an incubation period of 24 hours, optical density was measured to quantify the amount of bacteria in each well. B. Megaterium: Bacillus megaterium; S. aureus Met R: Meticillin resistant staphylococcus aureus; S. aureus Pen R: Penicillin resistant staphylococcus aureus; S. aureus Pen S: Penicillin sensitive staphylococcus aureus; B. subtilis: Bacillus subtilis; E. sakazaki: Enterobacter sakazaki.
(§3) All bacteria were cultivated to mid-logarithmic phase (optical density at 600 nm ranging from 0.2 to 0.5) in culture medium. Bacteria were then washed and diluted 1/100 in culture medium (LB) and incubated at 37° C. in 96-wells culture plate in the presence or absence of various concentrations of N6L ranging from 10 to 1000 μM. After an incubation period of 24 hours, optical density was measured to quantify the amount of bacteria in each well.

Assay [2] relates to Staphilococcus Aureus (penicillin resistant). Format: cell-based, Staphylococcus aureus. The method, then: as §2, §3
The test system of assay [3] is Staphilococcus Aureus (penicillin sensitive). Format: cell-based, Staphylococcus aureus. The procedure: as §2, §3
Another assay concerns Bacillus Megaterium. Format: cell-based. The procedure:
as §2, §3

The subject of another assay is Bacillus Subtilis. Format: cell-based. The method, then:
as §2, §3

A word on the IC50: it is the concentration that inhibits the measured activity by half. A high value points to lower potency.

Some results are limits rather than exact numbers.

In the case of `CC(=O)N[C@@H](CCCCNC(=O)[C@H](CCCNC(=N)N)NC(=O)[C@@H]1CCCN1C[C@@H](N)CCCCN)C(=O)NC(C)(C)C(=O)NCC(=O)N[C@@H](CCCCNC(=O)[C@H](CCCNC(=N)N)NC(=O)[C@@H]1CCCN1C[C@@H](N)CCCCN)C(=O)NC(C)(C)C(=O)NCC(=O)N[C@@H](CCCCNC(=O)[C@H](CCCNC(=N)N)NC(=O)[C@@H]1CCCN1C[C@@H](N)CCCCN)C(=O)NC(C)(C)C(=O)NCC(=O)N[C@@H](CCCCNC(=O)[C@H](CCCNC(=N)N)NC(=O)[C@@H]1CCCN1C[C@@H](N)CCCCN)C(=O)NC(C)(C)C(=O)NCC(=O)N[C@@H](CCCCNC(=O)[C@H](CCCNC(=N)N)NC(=O)[C@@H]1CCCN1C[C@@H](N)CCCCN)C(=O)NC(C)(C)C(=O)NCC(=O)N[C@@H](CCCCNC(=O)[C@H](CCCNC(=N)N)NC(=O)[C@@H]1CCCN1C[C@@H](N)CCCCN)C(=O)NC(C)(C)C(=O)NCC(N)=O` [Nucant N6L], the IC50 in the assay with Acinetobacter Baumanii amounted to 300 µM; in the assay with Citrobacter Freundii it was 80 µM; in the assay with Escherichia Coli, 20 µM; in the assay with Pseudomonas Aeruginosa it was 30 µM; in the assay with Yersinia Enterocolitica, 45 µM; in assay [1] it was 180 µM. In addition, the IC50 in assay [2] is 70 µM; in assay [3] it was 180 µM; with Bacillus Megaterium it was below 20 µM; in the assay on Bacillus Subtilis it was below 50 µM.
